{
  "source": "patent EP0716679B1",
  "about": "“METHOD OF CLEANING VINYL SURFACES BY MEANS OF MILDLY ACIDIC HARD SURFACE CLEANING COMPOSITIONS CONTAINING AMINE OXIDE DETERGENT SURFACTANTS” (THE PROCTER & GAMBLE COMPANY, priority 1993, dated 1995)",
  "origin": "cited, not measured here",
  "settings": "second pKa",
  "data": [
    {"smiles": "O=C(O)CCC(=O)O", "note": "[Succinic acid]", "values": [
      {"measurement": "pKa of acidifying agent", "value": 5.57}
    ]}
  ]
}
